## scFv variants of Ab-14 (heavy chain) against a SARS-CoV-2 spike peptide

Values reported by Li et al. 2023, doi:10.1038/s41467-023-39022-2 (FLAb copy).

The target is the same throughout: PDVDLGDISGINAS, from the HR2 region of SARS-CoV-2 spike.

The variants keep the light chain, the linker and the frameworks of Ab-14 (scFv order VH, the linker GGGGSGGGGSGGGGS, VL).
VH: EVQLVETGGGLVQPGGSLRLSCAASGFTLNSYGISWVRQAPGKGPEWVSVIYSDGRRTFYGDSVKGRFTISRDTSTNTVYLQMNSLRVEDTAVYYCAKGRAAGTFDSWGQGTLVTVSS
VL: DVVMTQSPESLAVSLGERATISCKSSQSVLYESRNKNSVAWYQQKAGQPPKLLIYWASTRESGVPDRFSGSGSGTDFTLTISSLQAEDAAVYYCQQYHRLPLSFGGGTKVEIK

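Designed CDR sequences, proposed from the first random library and measured here. Several design methods are mixed in this list. Affinity was read by AlphaSeq, a pooled yeast mating assay with surface-displayed partners. Mating (16 h, 30 °C) was followed by selection of diploids and sequencing of their barcodes. Scores were corrected for input abundance and mapped to Kd with protein pairs of known affinity run in the same pool. Mating was done six times.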

The parent's heavy chain CDRs are GFTLNSYGIS, VIYSDGRRTFYGDSVK, GRAAGTFDS; each variant's own CDRs replace them letter for letter. The read-out is the apparent dissociation constant on a log10 scale (nM): the lower, the stronger. Averages over replicates are reported, and they cover detected replicates only. "not detected" means that the variant was in the library but no mating with the target was seen in any replicate; the authors take this as a sign of poor binding, and no number exists. Entries are sorted by rising average, undetected variants last. A sequence measured in both rounds can read differently, since the two assays cover different ranges. Some sequences occur more than once in the pool; their replicates are pooled. The parent sequence was in this pool as ten entries: three were never detected, three once, and four in most replicates, with averages from 0.34 to 2.37. Three control strains display no target. For all heavy chain designs, 1% of the pairings with them gave a signal, with a median of 2.08 and one signal in twenty below 0.84, so weak values seen in few replicates may be background. The authors averaged sequences with at least three values out of six and counted those with two or fewer as poor binders.

CDR-H1	CDR-H2	CDR-H3	mean, log10 nM	detected
GFDLDEYGIS	VIYADGSRKAYADSVK	GENAGTFDV	-0.63	6 of 6
GFDLNEYGIS	VIYADGRRTAYADSVK	GNAAGTFDV	-0.62	6 of 6
GFDLDEYGIS	VIYADGKRTAYADDVK	GEVAGTFDQ	-0.51	6 of 6
GFDLNEYGIS	VIYADGKRTFYIDSVK	GEIAGTFDV	-0.49	6 of 6
GFDLNEYGIS	VIYADGMRTAYADSVK	GNVGGTFDI	-0.41	6 of 6
GFSIDEYGIS	VIYADGVRQAYQDSVK	GQIGGTFNY	-0.37	6 of 6
GFNLNEYGIS	VIYADGKRTFYADSVK	GEAAGTFDV	-0.35	6 of 6
GFDLDEYGIS	VIYADGVRTAYSDSVK	GNTAGTFDL	-0.34	6 of 6
GFDLNEYGIS	VIYADGLRTFYTDSVK	GEFAGTFDT	-0.33	6 of 6
GFDLNSYGIS	VIYSDGRRTFYSDSVK	GRQAGTFDS	-0.30	6 of 6
GFDLNEYGIS	VIYADGRRTAYADDVK	GNVAGTFDT	-0.21	6 of 6
GFDLNEYGIS	VIYADGKRTAYADSVK	GQNAGTFDV	-0.18	6 of 6
GFTLNSYGIS	VIYSDGRRTAYGDSVK	GREAGTFDS	-0.04	6 of 6
GFDLNEYGIS	VIYADGQRTFYADSVK	GGNAGTFDV	-0.04	6 of 6
GFNLNEYGIS	VIYADGRRTFYADSVK	GNNAGTFDV	-0.01	6 of 6
GFELNSYGIS	VIYSDGQRTFYADSVK	GKTAGTFDS	0.14	6 of 6
GFSLNEYGIS	VIYSDGRRTFYGDSVK	GRQAGTFDN	0.19	6 of 6
GFDLNEYGIS	VIYADGKRTVYADSVK	GNNAGTFDI	0.21	6 of 6
GFGLNEYGIS	VIYSDGRRTFYIDSVK	GKAAGTFDS	0.24	6 of 6
GFDLNEYGIS	VIYADGRRTQYIDSVK	GNEAGTFDE	0.26	6 of 6
GFELNSYGIS	VIYSDGRRTFYTDSVK	GQTAGTFDS	0.50	5 of 6
GFDLNEYGIS	VIYADGKRTYYADSVK	GSNAGTFDV	0.54	6 of 6
SFDLNSYGIS	VIYSDGRRTFYSDSVK	GRQAGTFDS	0.55	6 of 6
GFTLEEYGIS	VIYSDGRRTFYGDSVK	GRAAGTFDS	0.56	6 of 12
KFSLNSYGIS	VIYSDGRRTFYSDSVK	GQTAGTFDS	0.78	6 of 6
GFELNSYGIS	VIYSDGRRTFYGDSVK	GVKAGTFDS	0.83	1 of 6
KFDLNSYGIS	VIYSDGRRTFYDDSVK	GRTAGTFDS	1.07	5 of 6
GFTLNSYGIS	VIYSDGRRTFYIDSVK	GTLAGTFDS	1.12	6 of 6

The remaining entries, values ahead:

mean, log10 nM	detected	CDR-H1	CDR-H2	CDR-H3
1.30	6 of 6	GFDLNEYGIS	VIYADGMRTAYADDVK	GENAGTFDT
1.41	6 of 6	GFDLNEYGIS	VIYADGMRTAYADSVK	GENAGTFVL
1.45	6 of 6	GFTLNSYGIS	VIYSDGRRTAYHDSVK	GRAAGTFWS
1.64	3 of 6	KFDLNSYGIS	VIYSDGRRTFYVDSVK	GRTAGTFDS
1.85	2 of 6	GFTLNSYGIS	VIYSDGRRTFYSDSVK	TRAGGTFDK
1.89	5 of 6	LFDLNSYGIS	VIYSDGRRTAYGDSVK	GRAAGTFDS
2.19	1 of 6	GFQLNSYGIS	VIYFDGRRTFYGDSVK	GRAALRFCS
2.19	4 of 6	GFQLNSYGIS	VIYSDGRRTFYGDSVK	GAAAGTFDS
2.33	2 of 6	GFTLESYGIS	VIYSDGRRTFYEDSVK	GRCAGTFDS
2.57	2 of 6	GFTLNDYGIS	VIYSDGYRTFYGDSVK	GDAAGTVDS
2.63	6 of 6	GFDLNSYGIS	VIYSDGKRTFYIDRVK	GQAAGTFDS
2.80	2 of 6	GNTNNSYGIS	VIYADGHRTFYGDSVK	GRAAGTFDS
3.02	2 of 6	GFTLMSYGIS	VIYSDGRRTMYGDDVK	GRNAGTFSS
3.05	1 of 6	GFTLNSYGIS	VIYSDGRRTYYGDSVK	GRAAGTFGS
3.42	1 of 6	GFDINEYGIS	VIYADGQRVYYAEKVK	GFNQTINVL
not detected	0 of 6	GFSLNEYGIS	VIYADGMRTEYAQNVK	GYNSSDLTK
not detected	0 of 6	GFDLNSYGIS	VIYSDGRRFFYGDSVK	GLAAGWFNS
not detected	0 of 6	GFTLNSYGIS	VIYSDGRRTFYDDSVK	GQLAHTFDS
not detected	0 of 6	GFHLNSYGIS	VIYSDGRRTFYGDQVK	GQTAGTFDS
not detected	0 of 6	GFDLKQYGIS	VIYADGMRAGYADNVK	GEWGGKFLV
not detected	0 of 6	GFTLNSYGIS	VIYSDGRRTFYGDQVK	GRAATTFDS
not detected	0 of 6	GFTLNSYGIS	VIYSDGRRTFYHDSVK	GRYALTFDS
not detected	0 of 6	GFSLNDYGIS	VIYSDGRRTFYSDSVK	GRAAGFFDS
not detected	0 of 6	GFGINEYGIS	VIYADGMRSFYANSVK	GAHAGYMVW
not detected	0 of 6	GYTLNSYGIS	VIYSDGRRTVYGDSVK	GRAAGTFDS
not detected	0 of 6	GFDVDEQGIS	VIYADGLRSQYANSVK	GTIGGMFFQ
not detected	0 of 6	GFTLNSYGIS	VIYSDGYRTFYGDSVK	GRAAGTKDV
not detected	0 of 6	GFDLEKYGIS	VIYADGQRVEYDSSVK	GENAGYFMI
not detected	0 of 6	GFSLDEYGIS	VIYADGQRKHYADSVK	GQIDVYYTA